{"source": "patent US5612476A", "about": "“Anti-endotoxin compounds” (priority 1995, dated 1997)", "test_system": "HIV LTR", "test": "Suppression of LPS-stimulated HIV LTR activation in stably transfected U938 cell line (HIV-1 LTR-CAT)", "details": "for example Salmonella typhimurium, in words"}
{"smiles": "CCCCCC/C=C\\CCCC(=O)O[C@H](CCCCCCCC)CCO[C@@H]1[C@@H](NC(=O)CC(=O)CCCCCCCCCCC)[C@H](OC[C@H]2O[C@H](OP(=O)(O)O)[C@H](NC(=O)CC(=O)CCCCCCCCCCC)[C@@H](OCC[C@H](O)CCCCCCCC)[C@@H]2O)O[C@H](COC)[C@H]1OP(=O)(O)O", "note": "[Analog B464-32]", "values": [{"measurement": "inhibition of activation of the HIV-LTR mediated by LPS of other Gram-negative bacteria", "value": "similarly inhibited activation of the HIV-LTR"}]}
